Data from patent US9238653B2, “Antimalarial agents that are inhibitors of dihydroorotate dehydrogenase” (BOARD OF REGENTS, THE UNIVERSITY OF TEXAS SYSTEM, priority 2009, dated 2016).

By UniProt entry, the sequences of proteins in these tests, tags left out. Residues count along the entry.
UniProt Q08210, 24-569 limits assumed: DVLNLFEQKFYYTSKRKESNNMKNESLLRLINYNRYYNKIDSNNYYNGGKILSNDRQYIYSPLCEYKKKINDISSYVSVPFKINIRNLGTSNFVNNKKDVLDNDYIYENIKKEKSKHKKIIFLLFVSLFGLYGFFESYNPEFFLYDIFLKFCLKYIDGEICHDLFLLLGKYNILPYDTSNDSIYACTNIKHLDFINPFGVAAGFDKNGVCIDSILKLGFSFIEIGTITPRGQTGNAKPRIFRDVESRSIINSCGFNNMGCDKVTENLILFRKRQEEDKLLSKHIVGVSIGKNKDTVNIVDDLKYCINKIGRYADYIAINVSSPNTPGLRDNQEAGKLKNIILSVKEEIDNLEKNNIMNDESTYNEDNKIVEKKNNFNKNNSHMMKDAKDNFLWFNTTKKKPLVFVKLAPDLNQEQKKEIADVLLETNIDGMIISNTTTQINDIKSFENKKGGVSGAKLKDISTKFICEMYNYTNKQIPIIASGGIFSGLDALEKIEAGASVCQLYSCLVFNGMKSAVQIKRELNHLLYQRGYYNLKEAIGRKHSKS

Target: pfDHOD (Plasmodium falciparum (isolate 3D7), UniProt Q08210)
Experiment: DHOD enzyme inhibition, colorimetric DCIP reduction or direct orotic acid assay
Type: biochemical
Protocol: Reactions are initiated by addition of enzyme to a final concentration in the range of about 5 nM to about 50 nM while maintaining the temperature of a circulating water bath at 25° C.
Assay solutions were prepared as discussed above, except that DCIP is not present and the solution is depleted of oxygen by the inclusion of an oxidase/reductase system, such as, 0.1 mg/ml of glucose oxidase, 0.02 mg/ml catalase and 50 mM glucose. The data obtained was fitted to equation 1, to determine the IC50 values of the representative compounds.

**Q.** For `Cc1cc(Nc2ccc(S(F)(F)(F)(F)F)cc2)n2ccnc2n1`, which IC50 is on record?
**A.** 200 nM
